Assay results taken from PMC7252906 (Toxicology and applied pharmacology, 2019).
“And” between values parts separate entries of the source, which are not always exact repeats. Identical values can stand only once. Like-named read-outs stand apart in the source and are kept apart here.

Experiments:
[1] = 24 h
[2] = female mice, gavage 160 mg/kg, 24 h, listed as [^14C]choline
[3] = male rats, gavage 160 mg/kg, DMAE dose 0, listed as [^14C]choline, 160 mg/kg
[4] = DMAE pre-treatment 500 mg/kg, 1 h prior

C[N+](C)(C)CCO [choline, N,N,N-trimethylaminoethanol]
% Dose Recovered, Feces ([1]; female rats, IV 16 mg/kg, DMAE dose 0): 0.303 ± 0.132 % dose | % Dose Recovered, Feces ([1]; female rats, gavage 160 mg/kg, DMAE dose 0, listed as [^14C]choline, 160 mg/kg): 13 % dose and 12.9 ± 10.0 % dose | % Dose Recovered, Feces ([1]; female rats, gavage 160 mg/kg, DMAE pre-treatment 500 mg/kg, listed as [^14C]choline): 2.5 % dose and 2.52 ± 2.85 % dose | fecal excretion ([1]; female rats, gavage 160 mg/kg, no pre-treatment or 100 mg/kg DMAE pre-treatment): 11–13% | % Dose Recovered, Feces ([1]; male rats, IV 16 mg/kg, DMAE dose 0): 0.107 ± 0.052 % dose | % Dose Recovered, CO2 [1, 3]: ~13 % dose | % Dose Recovered, Feces [1, 3]: ~22 % dose and 21.5 ± 5.10 % dose | % Dose Recovered, Total Recovered ([1]; male rats, gavage 160 mg/kg, DMAE pre-treatment 100 mg/kg, 1 h prior): 86.1 ± 6.20 % dose | % Dose Recovered, Feces ([1]; male rats, gavage 160 mg/kg, DMAE pre-treatment 100 mg/kg, 1 h prior, listed as [^14C]choline): 21 % dose and 21.3 ± 13.8 % dose | % Dose Recovered, Total Recovered ([1]; male rats, gavage 160 mg/kg, DMAE pre-treatment 500 mg/kg, 1 h prior): 87.1 ± 1.90 % dose | % Dose Recovered, Feces ([1]; male rats, gavage 160 mg/kg, three DMAE pre-treatments 100 mg/kg 48, 24 and 1 h prior): 10.2 ± 10.2 % dose | % Dose Recovered, Feces ([2]; DMAE dose 0, 160 mg/kg): 3 % dose and 2.62 ± 3.34 % dose | % Dose Recovered, Total Recovered ([2]; DMAE dose 0, 160 mg/kg): 81 % dose | % Dose Recovered, Feces [2, 4]: 11 % dose | % Dose Recovered, Total Recovered [2, 4]: 91 % dose and 90.8 ± 8.60 % dose
